Measurements: US8609836B2, “4-aryl-2-anilino-pyrimidines” (Janssen Pharmaceutica NV, priority 2008, dated 2013)

Chains of the proteins cited; added tags and fusions are not shown.
UniProt O00444, whole entry: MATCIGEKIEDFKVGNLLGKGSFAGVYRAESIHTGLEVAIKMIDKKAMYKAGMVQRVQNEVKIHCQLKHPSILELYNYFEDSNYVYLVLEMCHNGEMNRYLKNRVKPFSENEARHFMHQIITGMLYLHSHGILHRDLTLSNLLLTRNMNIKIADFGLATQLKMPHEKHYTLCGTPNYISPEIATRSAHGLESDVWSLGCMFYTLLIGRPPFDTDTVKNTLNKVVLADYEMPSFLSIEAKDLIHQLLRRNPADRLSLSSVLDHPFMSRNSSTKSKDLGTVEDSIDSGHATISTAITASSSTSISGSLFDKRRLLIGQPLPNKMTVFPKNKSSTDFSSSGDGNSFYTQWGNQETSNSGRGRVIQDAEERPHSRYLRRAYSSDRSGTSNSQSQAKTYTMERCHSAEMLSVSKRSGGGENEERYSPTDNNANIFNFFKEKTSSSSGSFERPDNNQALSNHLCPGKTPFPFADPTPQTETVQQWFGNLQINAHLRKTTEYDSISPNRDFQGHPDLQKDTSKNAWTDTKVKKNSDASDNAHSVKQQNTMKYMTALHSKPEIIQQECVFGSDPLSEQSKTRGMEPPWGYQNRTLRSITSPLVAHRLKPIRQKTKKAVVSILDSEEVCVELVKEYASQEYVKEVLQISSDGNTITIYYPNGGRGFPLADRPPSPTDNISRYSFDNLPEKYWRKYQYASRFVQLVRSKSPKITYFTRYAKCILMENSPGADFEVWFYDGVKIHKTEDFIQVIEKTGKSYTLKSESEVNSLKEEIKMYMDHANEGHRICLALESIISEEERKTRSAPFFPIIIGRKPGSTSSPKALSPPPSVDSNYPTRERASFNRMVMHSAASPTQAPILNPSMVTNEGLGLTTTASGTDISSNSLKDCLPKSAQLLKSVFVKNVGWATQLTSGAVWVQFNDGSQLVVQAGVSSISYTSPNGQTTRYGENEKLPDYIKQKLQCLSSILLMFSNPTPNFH
UniProt P53350, whole entry T210D: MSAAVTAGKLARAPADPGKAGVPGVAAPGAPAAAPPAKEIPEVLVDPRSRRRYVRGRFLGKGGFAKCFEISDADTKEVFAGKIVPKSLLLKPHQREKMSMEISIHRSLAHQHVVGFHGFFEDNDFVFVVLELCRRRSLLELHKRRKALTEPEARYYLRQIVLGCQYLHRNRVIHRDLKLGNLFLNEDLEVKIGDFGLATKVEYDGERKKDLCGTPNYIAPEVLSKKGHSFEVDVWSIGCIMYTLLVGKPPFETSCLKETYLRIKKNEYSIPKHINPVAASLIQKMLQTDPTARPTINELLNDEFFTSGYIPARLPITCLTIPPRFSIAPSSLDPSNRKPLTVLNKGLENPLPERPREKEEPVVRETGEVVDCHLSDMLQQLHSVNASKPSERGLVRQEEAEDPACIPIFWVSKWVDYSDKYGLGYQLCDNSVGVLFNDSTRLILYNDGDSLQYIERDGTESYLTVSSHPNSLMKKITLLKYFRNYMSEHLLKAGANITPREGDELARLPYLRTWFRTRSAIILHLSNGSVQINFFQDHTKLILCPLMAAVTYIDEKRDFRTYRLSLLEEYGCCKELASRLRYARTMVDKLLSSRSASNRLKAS
UniProt Q96GD4, whole entry: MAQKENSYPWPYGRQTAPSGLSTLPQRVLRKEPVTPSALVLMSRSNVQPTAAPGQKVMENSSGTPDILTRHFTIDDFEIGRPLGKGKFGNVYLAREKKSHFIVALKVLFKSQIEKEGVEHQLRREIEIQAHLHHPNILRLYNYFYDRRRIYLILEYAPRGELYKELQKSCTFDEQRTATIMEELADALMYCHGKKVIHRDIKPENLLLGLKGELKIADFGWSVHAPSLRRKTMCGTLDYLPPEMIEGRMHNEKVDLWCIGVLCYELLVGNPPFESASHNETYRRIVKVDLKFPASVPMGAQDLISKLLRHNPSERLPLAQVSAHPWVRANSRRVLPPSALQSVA
UniProt P49841, whole entry: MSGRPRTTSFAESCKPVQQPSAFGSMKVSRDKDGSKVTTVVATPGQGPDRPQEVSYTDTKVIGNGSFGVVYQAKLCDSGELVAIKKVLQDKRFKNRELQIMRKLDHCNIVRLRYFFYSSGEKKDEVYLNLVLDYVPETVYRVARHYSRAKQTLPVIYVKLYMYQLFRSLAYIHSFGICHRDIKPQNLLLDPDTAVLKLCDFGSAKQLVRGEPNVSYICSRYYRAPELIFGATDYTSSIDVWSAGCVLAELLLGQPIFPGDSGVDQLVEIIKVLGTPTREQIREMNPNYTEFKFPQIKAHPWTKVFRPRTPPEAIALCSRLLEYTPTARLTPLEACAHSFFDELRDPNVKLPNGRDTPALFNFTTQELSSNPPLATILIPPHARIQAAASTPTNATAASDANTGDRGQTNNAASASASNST
UniProt P06493, whole entry: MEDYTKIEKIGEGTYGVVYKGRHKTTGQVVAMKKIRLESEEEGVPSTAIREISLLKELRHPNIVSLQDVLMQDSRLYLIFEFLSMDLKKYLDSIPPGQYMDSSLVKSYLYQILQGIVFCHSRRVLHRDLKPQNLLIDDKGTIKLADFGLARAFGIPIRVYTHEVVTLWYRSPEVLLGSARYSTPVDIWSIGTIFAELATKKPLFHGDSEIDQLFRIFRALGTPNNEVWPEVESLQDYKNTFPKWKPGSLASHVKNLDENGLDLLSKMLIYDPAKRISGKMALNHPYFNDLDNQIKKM
UniProt P11802, whole entry: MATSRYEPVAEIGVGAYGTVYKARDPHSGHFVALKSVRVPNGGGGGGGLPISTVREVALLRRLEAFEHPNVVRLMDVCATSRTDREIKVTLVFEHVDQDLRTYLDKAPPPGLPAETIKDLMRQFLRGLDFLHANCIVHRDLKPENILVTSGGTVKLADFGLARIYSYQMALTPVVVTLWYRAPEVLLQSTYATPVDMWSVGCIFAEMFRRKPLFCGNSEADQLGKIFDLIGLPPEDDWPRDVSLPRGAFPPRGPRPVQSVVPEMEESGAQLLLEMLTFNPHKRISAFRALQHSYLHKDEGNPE
UniProt Q9NYY3, whole entry: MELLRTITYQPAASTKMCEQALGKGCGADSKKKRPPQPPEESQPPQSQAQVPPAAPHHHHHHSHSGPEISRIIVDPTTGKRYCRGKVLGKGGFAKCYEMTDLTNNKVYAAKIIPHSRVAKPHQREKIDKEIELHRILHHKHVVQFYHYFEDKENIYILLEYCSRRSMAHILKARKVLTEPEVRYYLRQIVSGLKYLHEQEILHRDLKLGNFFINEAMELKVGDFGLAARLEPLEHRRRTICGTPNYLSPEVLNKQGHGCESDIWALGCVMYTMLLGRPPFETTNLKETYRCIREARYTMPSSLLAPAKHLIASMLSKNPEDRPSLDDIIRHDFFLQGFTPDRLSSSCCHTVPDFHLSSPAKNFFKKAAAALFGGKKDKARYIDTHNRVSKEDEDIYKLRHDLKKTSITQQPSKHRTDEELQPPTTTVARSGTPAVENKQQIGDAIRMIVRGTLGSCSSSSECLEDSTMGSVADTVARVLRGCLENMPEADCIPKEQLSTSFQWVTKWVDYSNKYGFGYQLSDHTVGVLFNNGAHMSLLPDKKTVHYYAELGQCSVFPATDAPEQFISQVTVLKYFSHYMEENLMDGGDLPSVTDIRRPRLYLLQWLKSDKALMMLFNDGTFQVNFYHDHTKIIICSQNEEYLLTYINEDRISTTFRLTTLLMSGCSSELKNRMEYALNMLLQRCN
UniProt Q9H4B4, whole entry: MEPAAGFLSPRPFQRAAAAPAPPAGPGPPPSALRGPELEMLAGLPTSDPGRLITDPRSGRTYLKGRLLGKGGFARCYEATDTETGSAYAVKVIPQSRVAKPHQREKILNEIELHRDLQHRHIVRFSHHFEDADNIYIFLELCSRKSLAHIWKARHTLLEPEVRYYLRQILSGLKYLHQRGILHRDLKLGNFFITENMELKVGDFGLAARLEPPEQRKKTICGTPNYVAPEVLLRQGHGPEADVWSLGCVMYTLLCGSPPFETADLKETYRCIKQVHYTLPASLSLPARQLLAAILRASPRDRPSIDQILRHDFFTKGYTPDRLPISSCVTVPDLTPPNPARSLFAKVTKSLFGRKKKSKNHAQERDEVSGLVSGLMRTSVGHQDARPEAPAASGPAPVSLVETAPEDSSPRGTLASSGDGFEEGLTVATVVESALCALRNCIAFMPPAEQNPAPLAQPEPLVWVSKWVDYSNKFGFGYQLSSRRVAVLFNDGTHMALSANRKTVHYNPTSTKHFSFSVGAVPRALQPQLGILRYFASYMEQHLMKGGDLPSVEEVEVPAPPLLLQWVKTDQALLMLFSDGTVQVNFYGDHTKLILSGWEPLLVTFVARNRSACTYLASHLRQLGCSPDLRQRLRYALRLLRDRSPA
UniProt P14635, whole entry partner: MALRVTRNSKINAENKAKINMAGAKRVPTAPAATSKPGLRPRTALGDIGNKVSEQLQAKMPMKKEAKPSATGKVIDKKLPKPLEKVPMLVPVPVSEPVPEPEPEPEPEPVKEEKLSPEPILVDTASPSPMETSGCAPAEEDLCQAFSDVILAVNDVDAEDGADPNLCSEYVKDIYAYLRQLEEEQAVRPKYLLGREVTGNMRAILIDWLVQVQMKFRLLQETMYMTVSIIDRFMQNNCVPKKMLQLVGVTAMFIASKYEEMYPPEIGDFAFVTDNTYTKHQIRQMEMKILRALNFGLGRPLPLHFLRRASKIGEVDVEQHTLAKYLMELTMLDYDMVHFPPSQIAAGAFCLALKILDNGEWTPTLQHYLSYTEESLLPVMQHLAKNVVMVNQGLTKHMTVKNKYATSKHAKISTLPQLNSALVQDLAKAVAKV
UniProt P24385, whole entry partner: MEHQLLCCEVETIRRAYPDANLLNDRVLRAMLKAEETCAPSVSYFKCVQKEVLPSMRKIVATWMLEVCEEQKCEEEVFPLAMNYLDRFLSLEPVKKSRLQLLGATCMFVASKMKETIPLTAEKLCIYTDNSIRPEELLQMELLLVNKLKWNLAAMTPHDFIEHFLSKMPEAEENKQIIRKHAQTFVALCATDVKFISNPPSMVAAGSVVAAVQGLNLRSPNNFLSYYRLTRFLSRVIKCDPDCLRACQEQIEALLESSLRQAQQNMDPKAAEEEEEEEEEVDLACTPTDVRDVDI

Columns and labels:
[1] = molecular target: PLK4 (h) (Homo sapiens, UniProt O00444); assay: PLK-4 human kinase inhibition, scintillation proximity assay (SPA); type: biochemical
[2] = molecular target: PLK1 T210D (h) (Homo sapiens, UniProt P53350, T210D); assay: PLK1 human kinase inhibition, SPA
[3] = tested on: HCT-116; assay: Cellular proliferation assay (Alamar blue), HCT-116; details: 10% FCS; 72 hours with compound; Alamar blue 4 h
[4] = tested on: U87-MG; assay: Cellular proliferation assay (Alamar blue), U87-MG; details: 10% FCS; 72 hours with compound; Alamar blue 6 h
[5] = tested on: A2780; assay: Cellular proliferation assay (Alamar blue), A2780; details: 10% FCS; 72 hours with compound; Alamar blue 24 h
[6] = tested on: MDA-MB-231; assay: Cellular proliferation assay (Alamar blue), MDA-MB-231; details: 10% FCS; 72 hours with compound; Alamar blue 24 h
[7] = molecular target: AuroraB (h) (Homo sapiens, UniProt Q96GD4); assay: Aurora-B human kinase inhibition, SPA
[8] = molecular target: GSK3β (h) (Homo sapiens, UniProt P49841); assay: GSK-3β human kinase inhibition, SPA
[9] = molecular target: CDK1/CyclinB (h) (Homo sapiens, UniProt P06493); assay: CDK1/CyclinB human kinase inhibition, Invitrogen's FRET assay (Z'lyte)
[10] = molecular target: CDK4/CyclinD1 (h) (Homo sapiens, UniProt P11802); assay: CDK4/CyclinD1 human kinase inhibition, SPA with GST-pRb substrate; type: biochemical
Experimental: The in vitro inhibition of a panel of kinases was assessed using either the scintillation proximity assay (SPA) as described by Cook, N. D. et al., Advances in Experimental Medicine and Biology (1991), 36; p. 525-528.
In the SPA technology the activity of the kinase of interest is measured using an appropriate biotinylated substrate that is incubated with the aforementioned kinase protein in the presence of (^33P) radiolabeled ATP. (^33P) Phosphorylation of the substrate is subsequently measured through binding of the phosphorylated substrate to streptavidine coated beads that are based on the scintillant poly(vinyl toluene) (PVT-Beads). The scintillation intensity is detected by imaging on Leadseeker.
All kinases are pre-diluted to a 10× working concentration prior to addition into the assay. The composition of the dilution buffer for each kinase is detailed below.
In a final reaction volume of 30 μl, CDK4/CyclinD1 (h) (2.5 μg/ml) is incubated with 50 mM Hepes pH 7.5, 8 mM NaF, 20 mM MgCl2, 1 mM DTT, 40 μg/ml of substrate GST-pRb, 2 nM [γ-^33P-ATP] (6.0 μCi/ml). After incubation of 60 minutes at room temperature, the reaction is stopped by addition of 40 μL of stop solution containing 8.7 mM EDTA, 0.17% Triton X-100, 25 mg/ml Glutathion SPA Beads (GE-healthcare). The plate is centrifuged and read for Scintillation topcount analyzer.

[11] = molecular target: PLK2 (h) (Homo sapiens, UniProt Q9NYY3); assay: PLK2 human kinase inhibition, SPA
[12] = molecular target: PLK3 (h) (Homo sapiens, UniProt Q9H4B4); assay: PLK3 human kinase inhibition, SPA

SMILES	PLK4 pIC50 [1]	PLK1 pIC50 [2]	HCT-116 (cellular proliferation assay, Table 4) [3]	U87-MG (cellular proliferation assay, Table 4) [4]	A2780 (cellular proliferation assay, Table 4) [5]	MDA/MB231 (cellular proliferation assay, Table 4) [6]	AuroraB pIC50 [7]	GSK3b pIC50 [8]	CDK1 pIC50 [9]	CDK4 pIC50 [10]	PLK2 pIC50 [11]	PLK3 pIC50 [12]
O=C1NCCOc2cccc(c2)-c2ccnc(n2)Nc2ccc(N3CCOCC3)c(c2)CN2C[C@H](O)C[C@@H]12	5.74	<5	<5	<5	5.26	<5	–	–	–	–	–	–
O=C1NCc2cccc(c2)-c2ccnc(n2)Nc2ccc(N3CCOCC3)c(c2)CN[C@H]1CO	6.11	<5	5.29	5.04	5.04	<5	5.24	6.51	<5	5.48	<5	<5
O=C1NCCOc2cccc(c2)-c2ccnc(n2)Nc2ccc(N3CCOCC3)c(c2)CN2CCC[C@@H]12	5.86	<5	<5	<5	–	–	–	–	–	–	–	–
CC(C)Nc1cc2cc(c1)Nc1nccc(n1)-c1cccc(c1)CN(C)CCNC(=O)[C@H](CO)NC2	6.3	<5	–	–	–	–	5.12	5.25	5.19	<5	<5	<5
